In patent US4550170A, “6-Phenyl-2,3,5,6-tetrahydroimidazo-[2,1-b]-thiazole derivatives” (Institut Organicheskoi Khimii Akademii Nauk Ukrainskoi SSR, priority 1984, dated 1985):
Structures can show the parent of a compound that is named as a salt.

Assays:
[1] = test system: rats; details: rat, in vivo, po
[2] = in vivo; details: mouse, sc
[3] = in vivo; details: rat
[4] = in vivo; details: rabbit

Q: With `c1ccc([C@H]2CN3CCSC3=N2)cc1` [levamizole, L-(-)-2,3,5,6-tetrahydro-6-phenylimidazo-[2,1-b]-thiazole hydrochloride, reference compound] as the compound, how does the “LD50 upon peroral administration” value [1] read?
A: Its value is 400.0 mg/kg.

Q: What about the LD50 [2] of the same compound?
A: Its LD50 is 121 mg/kg.

Q: What about the LD50 ([3]; po, LD50 upon peroral administration) of the same compound?
A: The LD50 was 533 mg/kg.

Q: And the LD50 ([3]; sc, LD50 upon subcutaneous injection, rats, female)?
A: The LD50 was 117 mg/kg.

Q: What about the LD50 ([3]; sc, LD50 upon subcutaneous injection, rats, male) of the same compound?
A: The LD50 was 137 mg/kg.

Q: And the LD50 ([4]; po)?
A: The LD50 was 267 mg/kg.

Q: And the LD50 ([4]; sc)?
A: The LD50 was 38.4 mg/kg.
